The nature of data set [1]: Aqueous solubility of compound in NH4HCO3 at pH 9.1 incubated for 4 hrs by UHPLC-DAD analysis. The format is physicochemical. Conditions: NH4HCO3, pH 9.1.
Data set [2] can be described thus: Aqueous solubility of compound in PBS at pH 7.4 incubated for 4 hrs by UHPLC-DAD analysis. The format is physicochemical.

≈ marks a conversion by molar mass, not a printed value.

By solubility is commonly meant the concentration that dissolves in the medium under given conditions. A low value points to little dissolved substance. Regarding `CCc1ccc(NCCCOc2cc(C)nc3ccc(OC)cc23)cc1`, the solubility at 4 h in data set [1] is 61.4 µM (≈ 21.5 µg/mL). Same read-out and setting: the same measure for `COc1ccc2nc(C)cc(OCCCNc3ccc(Br)cc3)c2c1`: 21 µM (≈ 8.44 µg/mL). Take `COc1ccc2nc(C)cc(OCCCNc3ccc(I)cc3)c2c1`: the solubility at 4 h in data set [1] worked out at 2.49 µM (≈ 1.12 µg/mL); in data set [2], 2.9 µM (≈ 1.3 µg/mL).

(Values after ChEMBL document CHEMBL6078678, “Unveiling the Antimycobacterial Potential of Novel 4-Alkoxyquinolines: Insights into Selectivity, Mechanism of Action, and In Vivo Exposure” (J Med Chem, 2024).)
